Earlier results on one molecule are cited in paper PMC11316633 (European journal of medicinal chemistry, 2024).

This data set addresses CDK7/Cyclin H/MAT1. To be noted: CDK7, covalent inhibitor; cited from earlier work.

Regarding `C=CC(=O)Nc1ccc(C(=O)Nc2n[nH]c3c2CN(C(=O)N[C@@H](CN(C)C)c2ccccc2)C3(C)C)cc1` [YKL-5–124], the Kinact/ki was 103 nM^−1μS^−1.
